These are literature values, as cited in patent US9598354B2, “Fumarate compounds, pharmaceutical compositions thereof, and methods of use” (priority 2015, dated 2017).

Structures are written as SMILES.

The subject of the data set is ALS.

`Nc1nc2ccc(OC(F)(F)F)cc2s1` [riluzole]: the extension of survival entry is “about three”.
